What was measured:
[1] = molecular target: Carbonic anhydrase 13 (Mus musculus) (UniProt Q9D6N1); test: Activation of mouse recombinant CA13 by CO2 hydrase method
[2] = molecular target: Carbonic anhydrase 1 (Homo sapiens) (UniProt P00915); test: Activation of human recombinant CA1 by CO2 hydrase assay
[3] = molecular target: Carbonic anhydrase 2 (Homo sapiens) (UniProt P00918); test: Activation of human recombinant CA2 by CO2 hydrase assay

Amino acid sequences for entries named in this document (tags omitted). A change or cut given only in a name is not applied to a line headed by its entry.
UniProt Q9D6N1: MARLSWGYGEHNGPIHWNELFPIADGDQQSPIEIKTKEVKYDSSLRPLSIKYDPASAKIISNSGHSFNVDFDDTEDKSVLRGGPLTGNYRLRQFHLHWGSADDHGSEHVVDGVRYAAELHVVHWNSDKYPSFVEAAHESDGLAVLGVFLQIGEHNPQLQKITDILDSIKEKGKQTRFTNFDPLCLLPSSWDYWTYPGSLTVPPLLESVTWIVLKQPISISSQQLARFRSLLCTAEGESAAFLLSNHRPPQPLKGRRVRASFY
UniProt P00915: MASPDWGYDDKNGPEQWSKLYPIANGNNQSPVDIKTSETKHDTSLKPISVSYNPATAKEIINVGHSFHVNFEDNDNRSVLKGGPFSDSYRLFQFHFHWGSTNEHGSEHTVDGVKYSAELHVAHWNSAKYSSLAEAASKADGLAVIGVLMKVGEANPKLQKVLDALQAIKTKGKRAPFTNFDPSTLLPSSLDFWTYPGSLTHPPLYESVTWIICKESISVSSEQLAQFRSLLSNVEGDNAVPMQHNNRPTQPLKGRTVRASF

SMILES: N[C@@H](Cc1ccccc1)C(=O)O
- KA [1]: 1.02 µM
- KA [2]: 0.07 µM
- KA [3]: 0.013 µM

SMILES: N[C@H](Cc1ccccc1)C(=O)O
- KA [1]: 0.051 µM
- KA [2]: 86 µM
- KA [3]: 0.035 µM

— ChEMBL document CHEMBL1138969, “Carbonic anhydrase activators: activation of isozyme XIII with amino acids and amines” (Bioorg Med Chem Lett, 2006)
